Consider one molecule from paper PMC10143822, “Structural Adaptation of the Single-Stranded DNA-Binding Protein C-Terminal to DNA Metabolizing Partners Guides Inhibitor Design” (Pharmaceutics, 2023).

The chains behind the UniProt entries cited, without tags or fusion partners. Where a name states a change or a piece, a line headed by the entry shows the natural chain unless it says otherwise. Residues count along the entry.
UniProt P04995, 1-471: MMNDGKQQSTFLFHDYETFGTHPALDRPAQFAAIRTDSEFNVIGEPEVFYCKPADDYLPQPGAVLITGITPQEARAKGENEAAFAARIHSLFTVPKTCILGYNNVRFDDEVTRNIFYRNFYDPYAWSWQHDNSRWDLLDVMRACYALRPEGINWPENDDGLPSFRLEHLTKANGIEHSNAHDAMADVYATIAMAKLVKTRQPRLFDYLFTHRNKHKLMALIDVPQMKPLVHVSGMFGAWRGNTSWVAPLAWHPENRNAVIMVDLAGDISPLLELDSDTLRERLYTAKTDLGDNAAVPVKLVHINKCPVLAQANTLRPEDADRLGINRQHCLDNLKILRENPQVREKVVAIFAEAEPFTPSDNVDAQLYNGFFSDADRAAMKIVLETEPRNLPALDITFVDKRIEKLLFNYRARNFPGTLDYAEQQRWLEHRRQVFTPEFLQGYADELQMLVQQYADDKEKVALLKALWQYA
UniProt P0A7H3: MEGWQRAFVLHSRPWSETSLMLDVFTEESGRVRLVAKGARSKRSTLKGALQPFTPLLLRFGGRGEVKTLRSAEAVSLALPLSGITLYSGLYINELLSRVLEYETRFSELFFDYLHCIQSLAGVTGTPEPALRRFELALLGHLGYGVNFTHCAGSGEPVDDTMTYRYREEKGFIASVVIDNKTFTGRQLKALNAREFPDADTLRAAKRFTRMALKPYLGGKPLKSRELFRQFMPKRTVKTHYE

Assay [1] has as its target T1, ExoI (Escherichia coli, UniProt P04995).
T1 construct: His-tag (cleaved yes); host or cells: E. coli BL21 (DE3) pLysS
As to the kind of experiment: biochemical. It is filed as binding, E. coli. How it is done: (§1) Triplicate measurements were performed using a Clariostar Plus Microplate Reader in 384-well plates for all fluorescence anisotropy (FA) experiments. The settings were 25 °C, excitation at 485 nm, emission at 510 nm, settling time of 0.2 s, and 200 flashes per well.
(§2) Competition fluorescence anisotropy experiments were carried out as follows: protein (0.5 μM either ExoI or RecO) was incubated with 50 nM F-wtSSB peptide and 0–500 μM unlabeled wtSSB (or a variant) peptide for 30 min at room temperature. For direct fluorescence anisotropy measurements, 16 µM ExoI and 7.5 µM RecO were used in the first well. After serial dilution, either 50 nM of F-mSSB or F-sSSB was added to the wells and then incubated for 30 min. […]
(§3) Fluorescence anisotropy values were normalized and are shown as bound fractions (BF, %). […]
(§4) Competitive fluorescence anisotropy was analyzed in Origin Pro 9.5, and IC50 values were determined using the Logistic Nonlinear fit function and are shown as plots for each mutated position for each protein in Figures S4 and S6. EC50 values from direct fluorescence anisotropy titrations were plotted in Origin 9.5. Values were determined using the Logistics Nonlinear fit function.

Assay [2] deals with T2, RecO (Escherichia coli, UniProt P0A7H3).
T2 construct: His-tag (TEV site) (N, cleaved yes); made in house; host or cells: E. coli Rosetta cells
Briefly: biochemical. It is filed as binding. Here is the method:
as §1, §2, §3, §4

Broadly, the IC50 is the concentration needed to halve the response being measured. Low values mean greater potency, high ones weaker potency. Regarding `CC[C@H](C)[C@H](NC(=O)[C@H](CC(=O)O)NC(C)=O)C(=O)N1CCC[C@H]1C(=O)N[C@@H](Cc1ccccc1)C(=O)O` [DIPF], the IC50 in assay [1] was found to be 102 ± 6.61 µM; in assay [2] it was 44.8 ± 4.53 µM.
